Earlier results as cited in article PMC10301092, “New Insights into the Opioid Analgesic Profile of cis-(−)-N-Normetazocine-derived Ligands” (Molecules, 2023).
Like-named read-outs stand apart in the source and are kept apart here.

Sequences of proteins named here, by UniProt entry; tags and fusion partners are left off.
UniProt P35372, whole entry: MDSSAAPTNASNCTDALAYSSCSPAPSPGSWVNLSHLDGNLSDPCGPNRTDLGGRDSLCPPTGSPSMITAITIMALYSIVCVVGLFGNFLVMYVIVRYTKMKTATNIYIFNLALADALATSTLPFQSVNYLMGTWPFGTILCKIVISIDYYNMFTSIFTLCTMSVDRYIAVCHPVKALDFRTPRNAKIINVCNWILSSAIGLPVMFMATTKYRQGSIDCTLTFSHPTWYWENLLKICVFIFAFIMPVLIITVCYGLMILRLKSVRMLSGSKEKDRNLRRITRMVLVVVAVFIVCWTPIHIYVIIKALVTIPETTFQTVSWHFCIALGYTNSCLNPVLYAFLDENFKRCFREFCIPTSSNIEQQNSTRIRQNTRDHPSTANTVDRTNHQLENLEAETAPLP

Key:
μ opioid receptor (MOR) = μ opioid receptor (MOR) (Homo sapiens, UniProt P35372); settings: cited from earlier work
MOR = settings: cited from earlier work

SMILES: C[C@H]1[C@H]2Cc3ccc(O)cc3[C@]1(C)CCN2CCC(=O)Nc1cccc2ccccc12
- Ki (μ opioid receptor (MOR); read-out: Ki MOR): 38 nM
- antagonist affinity (pA2) (MOR): 8.6 nM

SMILES: C[C@H]1[C@H]2Cc3ccc(O)cc3[C@]1(C)CCN2CCC(=O)NCc1ccccc1
- Ki (μ opioid receptor (MOR); read-out: Ki (nM) ± SD MOR): 105 nM

SMILES: C[C@H]1[C@H]2Cc3ccc(O)cc3[C@]1(C)CCN2CCC(=O)NC1CCCCC1
- increase in Ki value at MOR relative to LP1 (μ opioid receptor (MOR)): 60 fold
- Ki (μ opioid receptor (MOR); read-out: Ki (nM) ± SD MOR): 56 nM
